# Patent publication US20100247533A1, “TREATMENT WITH A HUMANIZED ANTI-EGFR IgG1 ANTIBODY AND IRINOTECAN” (priority 2009, published 2010)
# Tested on: A549 lung adenocarcinoma xenografts
# Assay: Animal survival study in vivo, A549 lung adenocarcinoma xenograft model
# Design: species or system SCID beige mice
# Experimental: Partially fucosylated GlycArt-mAb was provided as stock solution (c=11.3 mg/ml), in a buffer containing histidine, trehalose and polysorbate 20. The antibody stock solution was appropriately diluted in PBS prior to injection.
# The anti-EGFR antibody cetuximab (Erbitux®) was purchased as clinical formulation (5 mg/ml) from Merck Pharma GmbH, Darmstadt, Germany. The antibody concentration was adjusted by dilution of the reconstituted stock solution prior to injection.
# Irinotecan/CPT-11 (Campto®) was purchased as clinical formulation (20 mg/ml) from Pfizer Pharma GmbH, Karlsruhe, Germany. The antibody concentration was adjusted by dilution of the reconstituted stock solution prior to injection.
# A549 human Non Small Cell Lung Cancer (NSCLC) cells were obtained from ATCC. The tumor cell line was routinely cultured in RPMI medium (PAA Laboratories, Austria) supplemented with 10% fetal bovine serum (PAA Laboratories, Austria) and 2 mM L-glutamine, at 37° C. in a water-saturated atmosphere at 5% CO2. […]
# The in vivo anti-tumor efficacy of the combination of GlycArt-mAb with irinotecan, compared to the combination of the commercially available anti-EGFR antibody cetuximab with irinotecan, and both anti-EGFR antibodies and irinotecan as single agents was analyzed in the A549 lung adenocarcinoma xenograft model. […] The data was statistically analyzed by log rank test.
substance,measurement,setting,value
cetuximab,"p (log rank test), survival compared to vehicle control","antibodies 25 mg/kg i.p. every seven days, irinotecan 20 mg/kg i.p. four times, single agents or combinations",0.0031
same,animal survival compared to vehicle control,"single agents, antibodies 25 mg/kg i.p. every seven days (day 7-98), irinotecan 20 mg/kg i.p. day 7, 10, 14, 17, A549 cells injected i.v.",significantly prolonged animal survival
